# Entries after “also recorded” stand apart in the source; their conditions may differ.
# Test system: PC-3 and 22RV1 tumors (PC-3 및 22RV1 종양)
# Conditions: mouse, in vivo, iv
smiles,measurement,value
OC[C@H]1OC(O)[C@H]([18F])[C@@H](O)[C@@H]1O (stereo partly shown) [18F-FDG],tumor uptake on 18F-FDG PET/CT,양쪽 종양 모두에서 18F-FDG 흡수를 확인하였다; also recorded: 양쪽 종양 모두에서 축적됨을 확인하였다

# Reference: KR20220006286A, “전립선암 진단 및 치료를 위한 전립선특이 막 항원 표적 화합물 및 이를 포함하는 전립선암 진단 및 치료용 조성물” (priority 2020, dated 2022)
